scFv variants of Ab-14 (heavy chain) against a SARS-CoV-2 spike peptide

The measurements come from Li et al. 2023 (doi:10.1038/s41467-023-39022-2) through the FLAb antibody collection.

Binding partner: SARS-CoV-2 spike HR2 peptide, sequence PDVDLGDISGINAS.

The variants keep the light chain, the linker and the frameworks of Ab-14 (scFv order VH, a 15-residue (Gly4Ser)3 linker, VL).
VH: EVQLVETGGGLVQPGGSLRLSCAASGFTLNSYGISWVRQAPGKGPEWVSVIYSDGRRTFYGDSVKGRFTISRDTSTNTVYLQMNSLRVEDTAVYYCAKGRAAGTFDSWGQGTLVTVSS
VL: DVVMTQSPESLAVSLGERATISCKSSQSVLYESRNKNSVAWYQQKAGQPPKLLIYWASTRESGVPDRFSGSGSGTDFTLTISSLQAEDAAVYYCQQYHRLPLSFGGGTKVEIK

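Designed CDR sequences, proposed from the first random library and measured here. Several design methods are mixed in this list. The assay is AlphaSeq: two haploid yeast populations carry antibody and antigen on their surface. Mating (16 h, 30 °C) was followed by selection of diploids and sequencing of their barcodes. Scores were corrected for input abundance and mapped to Kd with protein pairs of known affinity run in the same pool. The assay was run in six technical replicates.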

Positions count from residue 1 of the parent VH; G103A puts A in place of G.
This list holds designs with at most six substitutions.
Numbers give log10(Kd / nM), so 0 is 1 nM and 3 is 1 µM. Smaller is tighter.
An entry "nd" has no value in the source: the pair was not observed among the diploids in that replicate. This suggests poor binding but is not conclusive.

With G103A/S107M the result was nd, nd, nd, nd, nd, nd.
With T28S/G61S the result was -0.01, -0.08, 0.15, 0.16, 0.02, 0.19; 0.41, 0.62, -0.09, 0.12, 0.42, 0.23.
With L29I/R56K/R100Q/D106L the result was nd, nd, nd, nd, nd, nd.
With T28S/R56Q/G61V/A101T the result was 1.43, 0.90, 0.91, 0.24, nd, 1.16.
With S31D/G61D the result was 1.05, 1.92, 0.73, 1.37, 1.09, 1.21; 1.07, 0.68, 1.06, 0.41, 0.52, 1.09.
With G103C/S107W the result was nd, nd, nd, nd, nd, nd.
With N30E/F59A/G61N/R100K/G103C/T104H the result was nd, nd, nd, nd, 3.39, nd.
With S63A/T104Y the result was nd, 1.74, nd, 1.65, 2.67, nd.
With T28G/G61Y/A101L the result was nd, nd, nd, nd, nd, nd.
With S31E/D106T/S107M the result was nd, nd, nd, nd, nd, nd.
With N30E/D106T/S107D the result was nd, nd, nd, nd, nd, 2.08.
With G26H/G61D/R100Q/A101L the result was nd, 1.12, nd, 1.82, nd, 2.49.
With S31Q/I34N/G61S/T104F/S107C the result was nd, nd, nd, nd, nd, nd.
With S31K/S53A/R100T/A101W the result was nd, nd, nd, nd, nd, nd.
With T28N/S31T/R100E/S107T the result was 0.56, 1.00, 1.16, 2.17, 0.40, 0.85.
With T28N/G61K/S63Q/A101T the result was nd, nd, nd, nd, nd, nd.
With G61D/V64C/R100Q/A101L the result was nd, nd, 1.72, nd, 2.46, nd.
With G61D/G99S/R100Q/A101L the result was 1.30, nd, 1.16, 2.29, nd, 2.29.
With T28E/S31Q/G61S/R100E/S107K the result was 0.15, 0.47, 0.31, 0.32, 0.09, 0.32.
With F27E/Y52R/A101W the result was nd, nd, nd, nd, nd, nd.
With T28D/A101T/D106V the result was nd, nd, nd, nd, 0.28, nd.
With T28V/G61A/S63Q/R100K/A101T the result was nd, nd, nd, nd, 1.81, nd.
With T28S/R100K/A101E/S107Q the result was -0.44, -0.17, -0.78, 0.07, -0.76, -0.69.
With S31E/D106S the result was nd, nd, nd, nd, nd, nd.
With T28S/G61K/R100Q/S107K the result was 1.52, 0.86, 1.21, 1.23, 0.66, 1.37.
With T28N/R56Q/G61S/D106S the result was 1.39, 2.19, 1.28, 1.46, 4.00, 1.94.
With T28G/S31E/R100Q/S107T the result was 0.58, 0.28, 0.31, -0.03, 0.10, 0.32.
With V64D/F105G/D106H the result was nd, nd, nd, nd, nd, nd.
With T104I the result was nd, nd, nd, nd, nd, nd.
With T28S/N30E/G61A the result was 0.58, 0.35, 0.45, 0.16, -0.16, 0.21.
With T28Y/S53F/G61D/R100Q/A101L the result was 0.29, 1.99, 0.74, 0.67, 1.18, 0.50.
With K65R/A102T/G103S the result was nd, nd, nd, nd, nd, nd.
With T28N/F59Q the result was 1.62, 2.11, nd, 1.92, 1.41, 2.76.
With S31E/R100K/S107F the result was 1.50, 0.72, 0.69, 1.00, 1.66, 0.87.
With S31E/F59M the result was 0.34, 0.26, 0.17, 0.07, 0.45, 0.54; 1.08, 1.55, 1.66, 0.19, 0.16, 0.51.
With G26K/G61I/R100Q/A101T the result was -0.05, 0.79, -0.18, -0.01, 0.81, 0.27.
With N30M/S53C/G61D/R100Q/A101L the result was nd, nd, nd, nd, nd, nd.
With R56K/G61S/S63Q/R100E the result was 1.16, nd, 1.26, 1.22, 1.59, 1.15.
With T28W/S31E/R100K/A101T the result was nd, nd, nd, nd, nd, nd.
With G61C/R100K/A101L the result was 1.19, nd, -0.05, 0.29, 1.17, 1.70.
With G26S/T28E/G61A/R100Q/A101T the result was nd, nd, 1.39, 0.69, 1.55, 1.32.

A sequence measured in both rounds can read differently, since the two assays cover different ranges.
Some sequences occur more than once in the pool; their replicates are listed entry by entry, parted by semicolons.
The authors' rule: three or more of the six replicates give a measured affinity, fewer mean a poor binder.
Empty control strains, which show no peptide, gave a signal in 1% of pairings with all heavy chain designs; the median was 2.08 and 95% of these signals were weaker than 0.84. No background was subtracted.
The parent sequence was in this pool as ten entries: three were never detected, three once, and four in most replicates, with averages from 0.34 to 2.37.